Drawing on PMC9264368, “Structural Analysis and Development of Notum Fragment Screening Hits” (ACS Chemical Neuroscience, 2022), this text covers IC50 for twelve compounds.

Protein sequences, listed by entry. Tags and fused reporters are not part of them. Residues count along the entry.
UniProt Q6P988, 81-451 C330S limits assumed: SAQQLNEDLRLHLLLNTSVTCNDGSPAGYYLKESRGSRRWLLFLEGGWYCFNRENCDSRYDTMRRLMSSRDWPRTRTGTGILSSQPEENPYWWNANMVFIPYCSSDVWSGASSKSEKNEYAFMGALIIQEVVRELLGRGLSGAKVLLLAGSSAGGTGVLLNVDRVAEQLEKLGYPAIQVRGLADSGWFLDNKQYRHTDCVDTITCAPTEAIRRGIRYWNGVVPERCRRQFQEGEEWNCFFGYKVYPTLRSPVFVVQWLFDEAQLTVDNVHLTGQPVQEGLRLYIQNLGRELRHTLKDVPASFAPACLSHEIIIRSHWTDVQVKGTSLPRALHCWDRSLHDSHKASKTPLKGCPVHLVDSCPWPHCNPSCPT

In the assay the target is Notum (Homo sapiens, UniProt Q6P988, C330S).

A value given as a limit tells only on which side of the number the result lay.

Compound `c1ccc(CNCc2ccc3c(c2)OCO3)cc1` returned an IC50 of 250 µM.

Regarding `c1ccc(-c2cc[nH]n2)cc1`, the IC50 worked out at 170 µM. Compound `Cc1ccccc1CN(C)Cc1ccc2c(c1)OCO2` came in with an IC50 of 560 µM. As to `CN(Cc1ccc2c(c1)OCO2)Cc1ccccn1`, the IC50 came out at 710 µM. For `c1cncc(CNCc2ccc3c(c2)OCO3)c1`, the IC50 was above 1000 µM. With `Clc1cccc(-c2cc[nH]n2)c1` the figure was 19 µM; with `Cc1ccccc1CNCc1ccc2c(c1)OCO2`, 120 µM. In turn, `Clc1ccc(-c2cc[nH]n2)cc1Cl` displayed an IC50 of 5.4 µM. For the compound `Fc1ccc(-c2cc[nH]n2)cc1F`, the IC50 came to 16 µM. `O=C(NCc1ccc2c(c1)OCO2)c1ccc(Cl)c(C(F)(F)F)c1` had an IC50 of 51 µM. Regarding `Cc1ccc(CNCc2ccc3c(c2)OCO3)o1`, the concentration for half-maximal inhibition (IC50) was 460 µM. The figure for `O=C(NCc1ccc2c(c1)OCO2)c1ccccn1` is 840 µM.
